The source of these data is BindingDB's records for US20260007681 (2026).

In general, IC50 refers to the concentration that inhibits the measured activity by half.

In the assay the target is DNA damage-binding protein 1/Protein cereblon (Homo sapiens, UniProt Q16531+Q96SW2). Description: In Vitro Assay: IC50 Measurements for Binding to CRBN/DDB1.

`COc1cc(N2CCC3(CCN(C(=O)CN4Cc5cnc(C(=O)N[C@H]6CCC(=O)NC6=O)cc5C4)CC3)CC2)ccc1[C@@H]1c2[nH]c3ccccc3c2CCN1CC(C)F` (stereo partly specified) yielded an IC50 of 2.75 µM.
